The results in this text go back to patent US4323517A, “Methoxy and methylsulfinylthiolesters” (Troponwerke GmbH & Co. KG, priority 1977, dated 1982).

This data set concerns kaolin oedema. Kind of data set: comparison of the therapeutic range. The following applies: rats, oral.

SMILES strings stand for the structures.

As to `CCCCC1C(=O)N(c2ccccc2)N(c2ccccc2)C1=O` [Phenylbutazone], the “Therapeutic range ED50 ulcer / ED50 kaolin oedema” value amounted to 1.48.
